Paper PMC6983093 (2019)

Key:
[1] = 25 °C; for Solubility in chloroform: ET(30) 39.1; for Solubility in diethyl ether: ET(30) 34.5; for Solubility in ethanol: ET(30) 51.9; for Solubility in ethyl acetate: ET(30) 38.1; for Solubility in n-hexane: ET(30) 31.0; for Solubility in toluene: ET(30) 33.9; for Solubility in water: ET(30) 63.1
[2] = Thermogravimetric analysis (thermal stability, TG); settings: heating 10 °C min^−1, air atmosphere

Substance	Solubility in chloroform [1]	Solubility in diethyl ether [1]	Solubility in ethanol [1]	Solubility in ethyl acetate [1]	Solubility in n-hexane [1]	Solubility in toluene [1]	Solubility in water [1]	Tonset (onset of the thermal degradation) [2] [°C]
L-Valine Butyl Ester Ketoprofenate	+ (soluble >100 g L^−1)	− (insoluble <33 g L^−1)	+ (soluble >100 g L^−1)	− (insoluble <33 g L^−1)	− (insoluble <33 g L^−1)	+ (soluble >100 g L^−1)	− (insoluble <33 g L^−1)	–
L-Valine Propyl Ester Ketoprofenate [[L-ValOPr][KETO]]	+ (soluble >100 g L^−1)	+/− (partially soluble 33–100 g L^−1)	+ (soluble >100 g L^−1)	+ (soluble >100 g L^−1)	− (insoluble <33 g L^−1)	+ (soluble >100 g L^−1)	− (insoluble <33 g L^−1)	–
L-Leucine Ethyl Ester Ketoprofenate	+/− (partially soluble 33–100 g L^−1)	− (insoluble <33 g L^−1)	+/− (partially soluble 33–100 g L^−1)	− (insoluble <33 g L^−1)	− (insoluble <33 g L^−1)	+ (soluble >100 g L^−1)	− (insoluble <33 g L^−1)	95.7
L-Valine Ethyl Ester Ketoprofenate [[L-ValOEt][KETO]]	+ (soluble >100 g L^−1)	+/− (partially soluble 33–100 g L^−1)	+ (soluble >100 g L^−1)	− (insoluble <33 g L^−1)	− (insoluble <33 g L^−1)	− (insoluble <33 g L^−1)	− (insoluble <33 g L^−1)	–
L-Valine Isopropyl Ester Ketoprofenate [[L-ValOiPr][KETO]]	+/− (partially soluble 33–100 g L^−1)	+ (soluble >100 g L^−1)	+ (soluble >100 g L^−1)	− (insoluble <33 g L^−1)	− (insoluble <33 g L^−1)	+ (soluble >100 g L^−1)	− (insoluble <33 g L^−1)	–
